Values of other authors, collected in patent US20090075974A1, “AGENT FOR PROPHYLAXIS AND TREATMENT OF PANCREATITIS” (UMN Pharma Inc., priority 2005, published 2009).

By UniProt entry, the sequences of proteins in these tests, tags left out.
UniProt P28223, whole entry: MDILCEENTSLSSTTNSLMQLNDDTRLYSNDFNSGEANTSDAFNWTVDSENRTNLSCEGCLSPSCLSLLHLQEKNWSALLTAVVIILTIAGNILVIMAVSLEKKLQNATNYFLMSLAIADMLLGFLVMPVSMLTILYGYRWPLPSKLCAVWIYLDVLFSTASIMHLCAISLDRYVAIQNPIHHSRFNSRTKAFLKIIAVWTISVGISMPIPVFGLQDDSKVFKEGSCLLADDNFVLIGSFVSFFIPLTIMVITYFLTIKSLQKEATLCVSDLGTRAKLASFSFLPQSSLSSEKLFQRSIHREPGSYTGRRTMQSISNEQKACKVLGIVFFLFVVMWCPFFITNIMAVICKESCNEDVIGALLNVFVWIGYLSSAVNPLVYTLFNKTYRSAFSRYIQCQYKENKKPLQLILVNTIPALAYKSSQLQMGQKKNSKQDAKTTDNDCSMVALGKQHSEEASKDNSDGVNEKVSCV

Target: 5-HT2A receptor (Homo sapiens, UniProt P28223)
Conditions: literature values, Knight et al. (2004); cited from earlier work

O=C1NCN(c2ccccc2)C12CCN(CCCOc1ccc(F)cc1)CC2 [AMI-193]
5-HT2A pKi ± SEM: 7.65 ± 0.08
